## scFv variants of Ab-14 (light chain) against a SARS-CoV-2 spike peptide

Target: peptide PDVDLGDISGINAS, taken from heptad repeat 2 (HR2) of SARS-CoV-2 spike.

Ab-14 is the parent antibody, in scFv form: VH, then three GGGGS repeats, then VL. The heavy chain is unchanged in all variants.
VH: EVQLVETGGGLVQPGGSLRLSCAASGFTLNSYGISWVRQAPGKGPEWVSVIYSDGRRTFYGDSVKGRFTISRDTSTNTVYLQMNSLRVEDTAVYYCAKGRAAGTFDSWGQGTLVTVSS
VL: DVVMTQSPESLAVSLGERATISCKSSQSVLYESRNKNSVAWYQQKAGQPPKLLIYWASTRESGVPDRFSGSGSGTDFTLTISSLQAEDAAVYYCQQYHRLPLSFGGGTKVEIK

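Phage display of a naive human antibody library on the peptide gave the parent. These sequences belong to a second round, designed from the earlier measurements on random variants of the parent. Group labels follow the data file (En: ensemble of fine-tuned language models; GP: Gaussian process model; HC: hill climbing; Gen: genetic algorithm; Gibbs: Gibbs sampling; a sequence that several methods proposed may carry one label only). The assay is AlphaSeq: two haploid yeast populations carry antibody and antigen on their surface. Binding brings cells together so that they mate, and sequencing counts the barcode pairs among the diploids. A regression on co-assayed BCL2-family reference pairs converts the normalised counts of each replicate to an apparent Kd. There are six technical replicates.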

The parent's light chain CDRs are KSSQSVLYESRNKNSVA, WASTRES, QQYHRLPLS; each variant's own CDRs replace them letter for letter.
Variants here have more than six changes.
Values are log10 of the apparent Kd in nM; lower means stronger binding.
An entry "nd" has no value in the source: the pair was not observed among the diploids in that replicate. This suggests poor binding but is not conclusive.
The range of this assay differs from that of the first round, and the authors advise against merging the two.
Empty control strains, which show no peptide, gave a signal in 4% of pairings with all light chain designs; the median was 2.64 and 95% of these signals were weaker than 1.59. No background was subtracted.
The authors' rule: three or more of the six replicates give a measured affinity, fewer mean a poor binder.
The parent sequence was in this pool as ten entries: three were never detected, three once, and four in most replicates, with averages from 0.34 to 2.37.

With KLSQSQEYESRNSNAVA / NASQRLQ / QQYHRLPLS [GP_Gibbs] the result was 0.07, 0.06, -0.22, -0.21, -0.41, -0.18. Variant KLQNSMLYESRNVNSVA / DASKRES / QAYHRLPLS [GP_Gibbs] gave 0.79, 0.71, 0.69, 0.43, 0.55, 0.69. Variant MLSQMWAIGQKVSNSVA / QVSTRFE / QQYDRLPLI [En_Gen] showed nd, nd, nd, nd, nd, nd. With MISQLYNMGTFAINSVA / QASVRNE / QQYDRLPLQ [En_Gen] the result was 1.88, 1.39, 1.38, 1.47, 1.86, 2.33. With KLVNFMNRGTHHTSNIA / DAQNRSD / QQYYRLPLA [En_Gen] the result was 0.30, 0.24, 0.08, -0.07, -0.05, 0.26.

With KLSTSHLYESRMVNAVA / EASTRMD / QQYHRLPLS [GP_Gibbs] the result was 0.55, 0.09, 0.28, 0.25, 0.51, 0.55. For YMSMYLDMQQNIQCGVA / DATTRND / QQYQRLPLS [En_Gibbs], the assay gave 0.83, 1.87, 1.47, 1.68, 1.20, 0.78. For MISQLYNMGQFAINSVA / QASERSE / QQYDRLPLI [En_Gen], the assay gave 1.79, 1.31, 0.90, 1.40, 1.88, 1.73. Variant KMPQSWWYESRNKWSVA / NASERES / QQYHRLPLS [GP_Gibbs] showed -0.26, 0.25, 0.08, -0.02, -0.18, 0.37. For MVSQLMMWGLHAKNSIA / EAVMRYN / QQYDRLPLF [En_Gen], the assay gave nd, 2.21, nd, nd, nd, nd.

With KIGQMVTEESRNKNSIA / QMTTREG / QQYHRLPLS [En_HC] the result was 0.75, 1.34, 0.23, 0.15, 0.03, 1.12. With NLSYLQGEPTNSVNNVA / QTSKRAH / QQYQHLPLC [En_Gibbs] the result was 1.29, 0.84, 1.59, 0.87, 0.92, 1.09. Variant TLSHSTDLESVHKNSIA / DLMTRES / QQYERLPLS [En_HC] showed 0.94, 0.50, 0.69, 0.25, 0.87, 1.01. With IVSQLMLWGMHVKNSIA / EAVTRIN / QQYDRLPLF [En_Gen] the result was nd, nd, nd, nd, nd, nd. With IVSQSVLGESRNLNSVA / QTSEREY / QQYDRLPLS [En_HC] the result was 1.46, 1.12, 2.43, 2.40, 2.45, 1.60.

Variant KSSWSVDYEDRNSNSVA / NASQRLW / QQYHRLPLS [GP_Gibbs] showed 0.01, 0.05, -0.20, -0.18, -0.08, 0.15. With KLYFSEEYGSRNKNSVA / SASQRES / QQYHRLPLS [GP_Gibbs] the result was 0.20, 0.38, 0.49, 0.88, 0.39, 0.68. Variant NIRGVEFESAMMGNAVA / DMSLVMA / QQYFRLPLH [En_Gibbs] showed nd, 1.02, nd, 0.16, nd, 1.24. Variant MISTVMNQLTHEGNNVA / DLQEREK / QQYFRLPLS [En_Gen] showed 0.70, 1.13, 0.77, 0.72, 1.37, 0.66. Variant KLSMSMLMESFHKNSVA / ENSTRES / QHYHRLPLS [En_HC] gave nd, nd, nd, nd, nd, nd.

Variant TISQSTYWESFNKNSVA / QTSTRME / QDYDRLPLS [En_HC] showed nd, 2.50, 2.96, nd, nd, nd. With KLYYHEVGEVNGQNSIA / ETDQLTF / QQYSHLPLS [En_Gibbs] the result was 1.72, 1.67, 1.65, 1.47, 1.56, 1.91. Variant MISQLYNMGQFAINSVA / QASQRNE / QQYDRLPLM [En_Gen] gave 2.11, 0.93, 2.32, 0.91, 1.45, 1.62. With KLSQFYRMEQRNKNSVA / DNSTRES / QDYDRLPLS [En_HC] the result was nd, nd, nd, nd, 2.04, nd. For KVSDPMVEWYANQSAVA / DHADVQH / QQYARLPLS [En_Gibbs], the assay gave 2.55, 2.79, 2.47, 2.57, 2.87, 2.13.

For MVTQMAMTGMMSKRSVA / NAEQRED / QQYHRLPLI [En_Gen], the assay gave nd, nd, nd, nd, 2.61, nd. Variant TISQMSTLFSQSINNVA / EVSTREE / QQYDRLPLF [En_Gen] showed nd, 1.95, nd, nd, nd, 0.81. Variant MFQEYVQGVEQDYNNIA / ENSYASR / QQYFRLPLA [En_Gibbs] gave nd, nd, nd, nd, nd, nd. Variant MIAQMLGWESNKINSVA / QANLRTE / QQYDRLPLI [En_Gen] showed 1.84, 1.16, 2.57, 1.81, 2.18, 1.60. For KIGDTLNQLMTKKNNVA / DLVEREN / QQYFRLPLS [En_Gen], the assay gave 1.24, 1.05, 0.98, 0.88, 1.02, 1.31.

For KISFNYLIESKNLNSVA / EMTTREY / QDYDRLPLS [En_HC], the assay gave 1.55, nd, 1.56, nd, nd, nd. For ILSDSVLTLSRNKNSVA / DNSTRES / QQYDRLPLS [En_HC], the assay gave nd, nd, 2.29, 2.03, 2.67, 4.37. Variant KSSQSELYESAAKNSVA / NAMQRMS / QQYHRLPLS [GP_Gibbs] showed 0.78, 0.51, 1.01, 0.32, 0.35, 0.61. For KLRVSTMLESHNKNSIA / DLTTRGN / QQYHRLPLS [En_HC], the assay gave -0.35, -0.17, 0.08, -0.47, -0.19, -0.25.

From the list, the first 4 with no signal in any replicate:

Variant MLSQMWAIGQKVSNSVA / QVSTRFE / QQYDRLPLI [En_Gen] showed nd, nd, nd, nd, nd, nd.
Variant IVSQLMLWGMHVKNSIA / EAVTRIN / QQYDRLPLF [En_Gen] showed nd, nd, nd, nd, nd, nd.
Variant KLSMSMLMESFHKNSVA / ENSTRES / QHYHRLPLS [En_HC] showed nd, nd, nd, nd, nd, nd.
Variant MFQEYVQGVEQDYNNIA / ENSYASR / QQYFRLPLA [En_Gibbs] showed nd, nd, nd, nd, nd, nd.

Reference: Li et al. 2023, doi:10.1038/s41467-023-39022-2. File: FLAb, binding data.